This is an account of results in US4743587A, “Hydroxamic acid based collagenase inhibitors” (G. D. Searle & Co., priority 1986, dated 1988).

The structures appear in SMILES notation.

The experiment addresses T1, Human Rheumatoid Synovial Collagenase (Homo sapiens, UniProt P03956).
T1 construct: from tissue
T1 sequence (P03956 100-469): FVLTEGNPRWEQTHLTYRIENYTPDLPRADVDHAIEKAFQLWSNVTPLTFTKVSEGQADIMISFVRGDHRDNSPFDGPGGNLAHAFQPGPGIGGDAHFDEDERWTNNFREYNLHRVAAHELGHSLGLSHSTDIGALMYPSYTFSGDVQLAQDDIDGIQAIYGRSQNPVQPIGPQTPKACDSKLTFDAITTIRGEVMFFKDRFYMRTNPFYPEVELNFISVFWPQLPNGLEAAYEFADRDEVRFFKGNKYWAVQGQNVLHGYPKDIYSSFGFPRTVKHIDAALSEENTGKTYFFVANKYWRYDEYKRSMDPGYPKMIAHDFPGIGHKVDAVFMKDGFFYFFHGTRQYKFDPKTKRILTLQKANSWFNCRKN
The experiment is described as follows: Collagenase inhibition (acetyl 14C collagen hydrolysis, procedure of Cawston and Barrett). It is filed as biochemical. Particulars: incubated at 37° C. for 16 hours with native acetyl 14C collagen and collagenase, Tris HCl-CaCl2, pH 7.6. The procedure: This was determined following the procedure of Cawston and Barrett, (Anal. […] The collagen is acetyl ^14 C collagen. The samples are centrifuged to sediment undigested collagen and an aliquot of the radioactive supernatant removed for assay on a scintillation counter as a measure of hydrolysis.
In general, IC50 refers to the concentration that gives 50% inhibition. `CNC(=O)[C@H](Cc1ccc(OC)cc1)NC(=O)C(CC(=O)NO)CC(C)C` (single isomer, unassigned) [2(A), N-[3-(N'-Hydroxycarboxamido)-2-(2-methylpropyl)propanoyl]-O-methyl-L-tyrosine N-Methylamide] gave an IC50 of 20 nM.

Molecule `CNC(=O)[C@H](Cc1ccc(OC)cc1)NC(=O)C(CC(=O)NO)CC(C)C` (single isomer, unassigned) [2(B), N-[3-(N'-Hydroxycarboxamido)-2-(2-methylpropyl)propanoyl]-O-methyl-L-tyrosine N-Methylamide] showed an IC50 of 4000 nM.

The molecule `CNC(=O)[C@H](Cc1ccc(OC)cc1)NC(=O)C(CC(=O)NO)CC(C)C` (stereo partly drawn) [Example 1, N-[3-(N'-Hydroxycarboxamido)-2-(2-methylpropyl)propanoyl]-O-methyl-L-tyrosine N-Methylamide] displayed an IC50 of 100 nM.
